From ChEMBL document CHEMBL1147722, “Discovery of proline sulfonamides as potent and selective hepatitis C virus NS5b polymerase inhibitors. Evidence for a new NS5b polymerase binding site” (J Med Chem, 2006)

Biological target: RNA-directed RNA polymerase (Hepacivirus hominis, UniProt O39930)
Assay: Inhibition of HCV NS5B RNA dependent RNA polymerase

Q: With `Cc1cc(S(=O)(=O)N2CCC[C@H]2C(=O)O)c(N)cc1Cl` as the compound, how does the IC50 read?
A: 3.1 µM
